From US6887878B2, “KMST isoeugenol derivatives and pharmaceutical activity” (Ing-Jun Chen, priority 2003, dated 2005)

Molecular target: α2 receptors
Test: [3H]yohimbine receptor binding in rat cortex
Conditions: read-out: Ki α2

SMILES: CC(CCc1ccccc1)NCC(O)c1ccc(O)c(C(N)=O)c1 (stereo not shown) [Labetalol]
- Ki: 3.54 µM
